Our source for the tumor detection and symptom status values is patent US20140127194A1, “COMBINED PHARMACEUTICAL COMPOSITIONS FOR THE TREATMENT OF TUMORS” (HYD Rákkutató és Gyógyszerfejlesztö Kft., priority 2011, published 2014).

In this test the test system is breast cancer (hyperactivity of HER2 gene), tumor in the mediastinum. Nature of the test: Case report: breast cancer patient with mediastinal tumor, Herceptin plus DDW. The format is in vivo, human. As to the method: In one patient in our data base, a tumor of 7.5 cm maximal diameter was discovered in the mediastinum 10 years after mastectomy, in January 2002. The patient received Herceptin and started to drink DDW in February.
DdU units used in the treatment were determined as described in Example 1 and 2.

On to trastuzumab [Herceptin], for which the tumor detection entry (one patient, tumor of 7.5 cm maximal diameter, 8 months after start of Herceptin with DDW consumption) is reported as “could not be detected”. The symptom status entry (same patient, 8 years later (2010), Herceptin with DDW) is “free of symptoms”.
